Compound activity from PubChem BioAssay.
Compounds with a hit are over-represented: about 3.7% of the library has one in this group of screens.
A549 tox: kills or reduces viability of A549 cells in Nrf2 counter-screen. actives 0.16% (n = 390,000). Potency, µM (titrated, usually from 46 µM), inactives show at the highest dose activity change, negative = cytotoxicity, most hits filed as inhibitors. A549 ARE-Fluc cells, CellTiter-Fluor viability, 18-24 h. AID 504648; further: potency means the concentration at half of the fitted maximal effect; on the % scale 0 is the no-effect control and ±100 the full control effect
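Cytotoxicity counterscreen: CellTiter-Fluor fluorescence was measured in A549 ARE_Fluc cells after 18-24 h of compound exposure in a concentration series. The subsequent BugLite luminescent read reports ARE-luciferase activity.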
miR-21 reporter: miR-21 reporter, rising signal | 340,000 tested, under 10 active | AID 2288 | HeLa miR-21 FLuc reporter, luciferase, 48 h | Potency, µM (titrated, usually from 38.3 µM), for inactives: at the highest dose reporter change, positive = more light; active = well fitted rising curve with a large enough effect; inconclusive = small, poorly fitted or top-dose-only effect; inactive = no such curve, though single readings can be large or run the other way;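 further: % of control where 0% means no effect; miR-21 action dims this reporter so a rising signal means less miR-21 action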
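Compounds were titrated across several concentrations (up to approximately 40 uM) and incubated 48 hours with HeLa miR-21-FLuc reporter cells (miR-21 target sequence downstream of FLuc, endogenous miR-21). Readout was firefly luciferase luminescence after lytic detection reagent.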
Nrf2 activator: activates Nrf2 signaling; AREc32 ARE-luciferase reporter (MCF7-derived line), luminescence, 24 h; Potency, µM (highest dose often 46.1 µM), inactives show at the top dose activation, actives largely listed as activators; actives 0.31% (n = 410,000); AID 624171; further: potency means the concentration at half of the fitted maximal effect; % of control where 0% means no effect; nearly all actives have a fitted effect of over 65% in size
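ARE-driven firefly luciferase activity in AREc32 cells measured after a 24 hr compound exposure at 37 deg C, using Steady-Glo reagent and a 30 min room-temperature hold.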
ClpP mod: qHTS Assay for Activators of ClpP; ATP-dependent Clp protease proteolytic subunit (Bacillus subtilis (strain 168)), P80244; purified B. subtilis ClpP, FRET peptide cleavage, 20 min; Potency, µM (highest dose often 57.5 µM), for inactives: at the top dose activity change, negative = active; actives 1.9% (n = 340,000); AID 651965, 2013; active means well fitted falling curve with a large enough effect; inconclusive means small, poorly fitted or top-dose-only effect; inactive means no such curve, though single readings can be large or run the other way; further: potency means the concentration at half of the fitted maximal effect; the source files actives as falling curves though it sought activators and does not explain the sign; nearly all actives have a fitted effect of over 65% in size
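Purified B. subtilis ClpP, 10 microg/mL final in Tris/HCl pH8 with KCl, BSA, glycerol and Tween-20, cleaved an Abz/nitrotyrosine-quenched decapeptide. Fluorescence (ex 320, em 430) was read at 0 and 20 min at room temperature. Delta was normalized to 5.8 microM ADEP and DMSO/no-enzyme controls.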
p53 reactivation: re-activators of mutant p53; H1299 p53-A138V BP100-luciferase reporter, luminescence, 24 h; Potency, µM (series often up to 92.2 µM), for the others: at the highest dose activity change, positive = activation, actives largely listed as activators; actives 0.063% (n = 320,000); AID 504706; further: potency means the concentration at half of the fitted maximal effect; % of control where 0% means no effect; nearly all actives have a fitted effect of over 45% in size
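p53-null H1299 cells stably carrying temperature-sensitive p53-A138V and a BP100-luciferase reporter were pinned with compounds (4-point, 1:5 series) and held 24 hrs at 37 deg C. Luminescence was read 10 min after detection reagent.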
Nrf2 block: inhibitors of Nrf2 signaling; A549 ARE-Fluc reporter, luciferase luminescence, 18-24 h; actives 2.1% (n = 360,000); Potency, µM (titrated, usually from 46 µM), without a hit: at the highest dose activity change, negative = inhibition, hits mostly inhibitors; further: potency means the concentration at half of the fitted maximal effect; on the % scale 0 is the no-effect control and ±100 the full control effect; nearly all actives have a fitted effect of over 60% in size
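Concentration-response testing used A549 ARE_Fluc cells at 5000 cells/well. Following an 18-24 h compound incubation, viability was read by fluorescence (Ex 405/Em 525) and luciferase output by luminescence.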
An asterisk follows results filed as active; ? = inconclusive; . = not tested or not shown; ! = not confirmed by another sample; [ ] = dose if it differs, or a comment. Unless noted, the call rests on the fitted dose curve; in most records, active means well fitted curve in the direction sought with a large enough effect; inconclusive means small, poorly fitted or top-dose-only effect, or another doubt; inactive means no such curve, though single readings can be large; an effect the other way counts as inactive or inconclusive.

Key to letters – A = A549 tox; B = miR-21 reporter; C = Nrf2 activator; D = ClpP mod; E = p53 reactivation; F = Nrf2 block
CCOc1ccc(S(=O)(=O)N2CCCCC2)cc1NC(=O)C1CCC1
  A: 7%	B: .	C: -1%	D: 14µM*	E: -5%	F: -15%

CCOc1ccccc1NC(=O)C1CCN(S(=O)(=O)Cc2ccccc2)CC1
  A: -1%	B: 26%	C: 0%	D: 0%	E: .	F: 23µM*

C(=N\n1cnnc1)/c1nc2ccccc2[nH]1
  A: 10%	B: 4%	C: 0%	D: 16µM*	E: 0%	F: 12%

Cn1c(/C=N/n2cnnc2)nc2ccccc21
  A: 3%	B: -2%	C: 4%	D: 14µM*	E: ?	F: 9%

Cc1[nH]c2ccccc2c1/C=N/n1cnnc1
  A: -1%	B: -6%	C: 2%	D: 0%	E: -1%	F: 4%

Cn1c(/C=N/O)nc2ccccc21
  A: 0%	B: 1%	C: ?	D: 4%	E: 4%	F: 3%

COc1cc(Nc2nc3c(S(=O)(=O)c4ccccc4)nnn3c3ccc(Cl)cc23)cc(OC)c1
  A: 2%	B: 0%	C: 2%	D: -20%	E: .	F: ?

C[C@@H]1[C@@H](Sc2ccccc2)CC(=O)O[C@@H]1c1ccc(-c2ccccc2)cc1
  A: -8%	B: .	C: ?	D: 0%	E: .	F: 18µM*

Nc1ncnc2c1C(c1ccccc1)c1c(ccc3ccccc13)O2 (stereo not given)
  A: ?	B: .	C: -2%	D: .	E: -6%	F: 18µM*!

N=c1c2c(ccn1CCc1ccccc1)Oc1ccc3ccccc3c1C2c1ccccc1 (stereo not given)
  A: 3.7µM*	B: .	C: .	D: .	E: .	F: 3.7µM*

COc1cc(OC)cc(C(=O)Oc2c(Sc3ccccc3)c(C)nn2C(C)(C)C)c1
  A: 6%	B: 19%	C: -1%	D: -6%	E: .	F: 11%[9.27 µM]

CCC(=NNC(=O)c1ccc2c(c1)nc(C)n2CC)c1cc(F)ccc1O
  A: -7%	B: .	C: 0%	D: 5%	E: 3%	F: 6.5µM*

CC1=C(c2ccc(C)c(C)c2)S(=O)(=O)N(Cc2ccc(C(=O)NCc3ccc(C)cc3)cc2)C1=O
  A: 1%	B: -3%	C: -1%	D: 11µM*	E: .	F: ?

CC1CCCN(C(=O)CSc2c3c(nc4cc(Cl)ccc24)CCCC3)C1 (stereo not given)
  A: ?	B: ?	C: ?	D: -1%	E: .	F: ?

COc1ccc2oc(=O)cc(CN3CCN(C(=O)c4ccccc4)CC3)c2c1
  A: 1%	B: 2%	C: -1%	D: -18%	E: .	F: 6%

CCn1cc(/C=N/NS(=O)(=O)c2ccc(OC)cc2)c(C)n1
  A: 8%	B: 0%	C: 1%	D: 32µM*	E: -1%	F: .

CCn1cc(/C=N/NS(=O)(=O)c2ccc(C)cc2)c(C)n1
  A: 5%	B: -1%	C: 2%	D: -3%	E: -3%	F: 2%

O=[N+]([O-])c1ccc(Oc2ccc(/C=N/O)cc2)nc1
  A: -2%	B: -15%	C: 2%	D: .	E: 1%	F: -15%

O=[N+]([O-])c1ccc(Oc2ccc(Oc3ccc(C(F)(F)F)cn3)cc2)nc1
  A: 0%	B: 8%	C: 0%	D: 0%	E: 12%	F: 16µM*

COc1ccc(-c2nc(C(=O)Nc3cccc(C(C)=O)c3)nn2-c2ccccc2Cl)cc1
  A: -1%	B: 8%	C: 1%	D: -5%	E: .	F: ?

COc1cc2c(cc1NS(=O)(=O)N1CCCCC1)oc1ccccc12
  A: 0%	B: 0%	C: 0%	D: 32µM*	E: 1%	F: .

COc1ccccc1NC(=O)CSCC(=O)N1c2ccccc2CCc2ccccc21
  A: ?	B: 6%	C: 2%	D: -2%	E: -5%	F: 18µM*

COc1ccc(NC(=O)CSCC(=O)N2c3ccccc3CCc3ccccc32)cc1
  A: 16%	B: -2%	C: 3%	D: -3%	E: 6%	F: -19%

O=S(=O)(Nc1ccc2c(c1)oc1ccccc12)N1CCCC1
  A: 3%	B: -37%	C: -1%	D: ?	E: 1%	F: -4%

COc1cc2c(cc1NC(=O)Nc1ccccc1)oc1ccccc12
  A: ?	B: -7%	C: 3%	D: 28µM*	E: 3%	F: ?

COc1cc2c(cc1NC(=O)CCC(=O)O)oc1ccccc12
  A: -2%	B: -9%	C: 0%	D: .	E: -9%	F: -10%

COc1ccccc1NC(=O)COc1ccccc1
  A: 5%	B: -40%	C: 11µM*	D: -2%	E: 6%	F: ?

O=C(COc1ccccc1)Nc1ccccc1Oc1ccccc1
  A: 22%	B: -6%	C: -1%[9.22 µM]	D: -1%	E: ?	F: ?

Cc1cn(C2CC3OCC(NC(=O)C4CCCN4C(=O)OC(C)(C)C)C3O2)c(=O)[nH]c1=O (stereo not given)
  A: -3%	B: .	C: .	D: .	E: .	F: ?

COc1cc2c(cc1NC(=O)COC(=O)C(CCSC)NC(=O)c1ccccc1Cl)oc1ccccc12 (stereo not given)
  A: -1%	B: -25%	C: 14%	D: 25µM*	E: ?	F: ?

CCc1ccc(OCC(=O)Nc2cc3oc4ccccc4c3cc2OC)c(Br)c1
  A: 7%	B: 1%	C: -1%	D: -7%	E: .	F: ?

COc1cc2c(cc1NC(=O)COC(=O)c1ccc(C(C)(C)C)cc1)oc1ccccc12
  A: 5%	B: -4%	C: 1%	D: .	E: -11%	F: 12%

COc1cc2c(cc1NC(=O)CN(C)Cc1ccc(OC)c(OC)c1)oc1ccccc12
  A: -12%	B: 26%	C: -1%	D: ?	E: 1%	F: 16µM*

COc1cc2c(cc1NC(=O)COc1ccccc1OC)oc1ccccc12
  A: 7%	B: -4%	C: 0%	D: 25µM*	E: 2%	F: .

CNC(=O)COc1ccccc1C(=O)Nc1ccc2c(c1)oc1ccccc12
  A: 2%	B: -17%	C: -2%	D: 4µM*	E: -9%	F: 7.3µM*

CNS(=O)(=O)c1cc(-c2nn3c(C)nnc3c3ccccc23)ccc1C
  A: -13%	B: -9%	C: 14%	D: -12%	E: .	F: .

O=C(CSc1ccc2nc(-c3ccccc3)cn2n1)Nc1ccccc1
  A: 8%	B: -48%	C: -1%	D: 4%	E: .	F: .

Cc1cc(NS(=O)(=O)c2ccc3c(c2)CCC(=O)N3)ccc1F
  A: -3%	B: .	C: .	D: .	E: .	F: ?

COc1ccc(C)cc1NC(=O)c1oc2ccc(S(=O)(=O)N3CCC4(CC3)OCCO4)cc2c1C
  A: -2%	B: 4%	C: -1%	D: -9%	E: .	F: .

COc1ccc(OC)c(S(=O)(=O)N2CC=C(c3c(C)n(CC(=O)N4CCCC4)c4ccccc34)CC2)c1
  A: -10%	B: 10%	C: 1%	D: -5%	E: .	F: -14%

C=CCOc1c(CNc2cccc(C(=O)O)c2)cccc1OCC
  A: -1%	B: -14%	C: 0%	D: 32µM*	E: 7%	F: -15%

C=CCOc1c(CNc2cccc(C(=O)O)c2)cccc1OC
  A: 15%	B: -11%	C: -1%	D: 25µM*	E: 5%	F: ?

C=CCOc1c(CNc2ccc(C(=O)O)cc2)cccc1OC
  A: 2%	B: -27%	C: 0%	D: -11%	E: 8%	F: -17%

C=CCOc1c(CNc2ccc(C(=O)O)cc2)cccc1OCC
  A: -12%	B: -57%	C: 0%	D: -12%	E: 3%	F: 17%

Cn1cc(-c2cc3n(n2)CCC(=O)N3CC(=O)NCc2ccccc2)c2ccccc21
  A: 3%	B: -3%	C: 0%	D: -21%	E: .	F: .

Fetched by compound from above, 3 records:
Key to letters – A = A549 tox; B = miR-21 reporter; C = Nrf2 activator; D = ClpP mod; E = p53 reactivation; F = Nrf2 block
C=CCOc1c(CNc2ccc(C(=O)O)cc2)cccc1OCC
  A: -12%	B: -57%	C: 0%	D: -12%	E: 3%	F: 17%

C=CCOc1c(CNc2cccc(C(=O)O)c2)cccc1OC
  A: 15%	B: -11%	C: -1%	D: 25µM*	E: 5%	F: ?

Cn1cc(-c2cc3n(n2)CCC(=O)N3CC(=O)NCc2ccccc2)c2ccccc21
  A: 3%	B: -3%	C: 0%	D: -21%	E: .	F: .
